Like-named read-outs stand apart in the source and are kept apart here.

The test system of series [1] is hiPSC-CM (iCell Cardiomyocytes^2). Nature of the series: Intracellular miRNA expression by RT-qPCR in hiPSC-CM pellets after 72-hour treatment. The following applies: for hsa-miR-7-5p fold change, intracellular / hsa-miR-29a-5p fold change, intracellular / hsa-miR-96-5p fold change, intracellular / hsa-miR-126-3p fold change, intracellular / hsa-miR-133b fold change, intracellular / hsa-miR-146b-5p fold change, intracellular / hsa-miR-182-5p fold change, intracellular / hsa-miR-185-3p fold change, intracellular / hsa-miR-187-3p fold change, intracellular / hsa-miR-208b-3p fold change, intracellular / hsa-miR-365a-5p fold change, intracellular / hsa-miR-[…] change, intracellular: 72 h. As to the method: (§1) Culture media change was performed every 2 days.
Total RNA was extracted from hiPSC-CM using the miRNeasy 96 Kit (Qiagen, Hilden, Germany) following the manufacturer’s recommendations. After the extraction, RNA purity was assessed by NanoDrop™ 8000 Spectrophotometer (Thermo Fisher Scientific Inc.). 5–10 ng/μL of RNA per sample were reverse transcribed and pre-amplified by using the TaqMan™ Advanced miRNA cDNA Synthesis Kit (Thermo Fisher Scientific Inc.). The synthesized cDNA was used for RT-qPCR with selected TaqMan™ assays (Thermo Fischer Scientific Inc.). RT-qPCR was carried out following the Applied Biosciences TaqMan miRNA expression assay protocol on a ViiA7 instrument (Thermo Fisher Scientific, Inc.). […] Therefore, to maximize the number of drugs and concentrations, explored in the same study, we pooled the triplicates for intracellular profiling of miRNAs. Therefore, no statistical analysis was performed on the data of miRNA profiling in the pellets of hiPSC-CM.
Following RTCA CardioECR assessment, hiPSC-CM cell pellets were collected, and total RNA was extracted and purified to investigate miRNAs upregulation by RT-qPCR. […] For the initial assessment of intracellular miRNAs in 12 different treatments, encompassing various drug classes, we used a panel of 17 miRNAs, which we selected from the publicly available data focusing mainly on in vitro models and structural cardiotoxicants (Supplementary Table S2).
On the technique in general: Quantitative PCR measures a nucleic acid by following its amplification.

For series [2] the test system is unchanged. Briefly: miRNA in hiPSC-CM culture media by RT-qPCR at 24, 48 and 72 h post-treatment.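 Further: medium RNA quantified by RT-qPCR, CT-values normalized to housekeeping miRNAs, compared against DMSO control, doses chosen from the MEC for CI.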
For series [3] the test system is unchanged. Briefly: RTCA CardioECR assessment (impedance and electrophysiology parameters). The following applies: 72-hour treatment, lowest concentration causing at least 20% change from baseline. As to the method: as §1
After seeding on fibronectin-coated xCELLigence ePlates (Agilent Technologies, Inc. Santa Clara, CA, USA), iCell^2 CM were monitored continuously through impedance electrodes. The following impedance parameters were measured: Cell Index (CI, measure of cell “health” and monolayer integrity), beating rate (BR) and amplitude (CI Amplitude, magnitude of contraction). Electrophysiology-like parameters (Field Potential Duration (FPD), considered as a surrogate for QT in in vivo studies, and Spike Amplitude (SA), depolarization induced by Na^+ channel opening) were measured starting from day 4–6, following the monolayer formation. […] All RTCA CardioECR data were double normalized (DMSO control and the baseline) with no further statistical group comparison for the normalized parameters. The variability of the data within the treatment groups was assessed by standard deviation.

Consider `C#Cc1cccc(Nc2ncnc3cc(OCCOC)c(OCCOC)cc23)c1` [Erlotinib], for which, in series [1] (0.77 µM), the “hsa-miR-7-5p fold change, intracellular” value was 2.3; the “hsa-miR-29a-5p fold change, intracellular” value (shortened to “hsa-miR-29a-5p fold change”) stood at 1.1; the “hsa-miR-96-5p fold change, intracellular” value was 1.1; the “hsa-miR-126-3p fold change, intracellular” value is on record as 2.0. In series [1] (0.77 µM), the “hsa-miR-133b fold change, intracellular” value is 0.9; the “hsa-miR-146b-5p fold change, intracellular” value (from here on “hsa-miR-146b-5p fold change”) was found to be 4.5; the “hsa-miR-182-5p fold change, intracellular” value (from here on “hsa-miR-182-5p fold change”) is listed as 0.9; the “hsa-miR-185-3p fold change, intracellular” value (“hsa-miR-185-3p fold change” for short) came to 1.1. Also, in series [1] (0.77 µM), the “hsa-miR-187-3p fold change, intracellular” value (“hsa-miR-187-3p fold change” for short) was 1.1; the “hsa-miR-208b-3p fold change, intracellular” value stood at 4.5; the “hsa-miR-365a-5p fold change, intracellular” value (“hsa-miR-365a-5p fold change” for short) was found to be 0.1. Besides, in series [1] (7.7 µM), the “hsa-miR-7-5p fold change, intracellular” value was determined as 3.6; the “hsa-miR-29a-5p fold change” value is on record as 1.0; the “hsa-miR-96-5p fold change, intracellular” value is recorded as 0.5; the “hsa-miR-126-3p fold change, intracellular” value was found to be 0.9. In series [1] (7.7 µM), the “hsa-miR-133b fold change, intracellular” value is given as 0.7; the “hsa-miR-146b-5p fold change” value is 0.2; the “hsa-miR-182-5p fold change” value was determined as 2.6; the “hsa-miR-185-3p fold change” value was determined as 4.6. Further, in series [1] (7.7 µM), the “hsa-miR-187-3p fold change” value is reported as 1.1; the “hsa-miR-208b-3p fold change, intracellular” value turned out to be 1.0; the “hsa-miR-365a-5p fold change” value was found to be 2.1. In series [2] (7.7 µM, 24h), the “hsa-miR-126-3p fold change, culture media” value is 1.5; the “hsa-miR-208b-3p fold change, culture media” value stood at 1.4; the “hsa-miR-[…] change, culture media” value is on record as 1.1. In addition, in series [2] (7.7 µM, 48h), the “hsa-miR-208b-3p fold change, culture media” value turned out to be 1.1 and the “hsa-miR-[…] change, culture media” value was determined as 0.5. In addition, in series [2] (7.7 µM, 72 h), the “hsa-miR-133b fold change, culture media” value amounted to 5.6; the “hsa-miR-208b-3p fold change, culture media” value is on record as 0.5; the “hsa-miR-[…] change, culture media” value worked out at 0.4. For the same compound, in series [2] (24, 48, 72 h, doxorubicin 0.1 μM, arsenic trioxide 0.48 μM, milrinone 3 μM, vincristine 0.3 μM, vinblastine 0.3 μM, erlotinib 7.7 μM), the “hsa-miR-133b in culture media, in words” value is on record as “increase that was not statistically significant”. The “Cell index (CI) MEC” value in series [3] is given as “ND (ND – not detected, magnitude of change was lower than 20%)”.

Regarding `Cc1ccc(NC(=O)c2ccc(CN3CCN(C)CC3)cc2)cc1Nc1nccc(-c2cccnc2)n1` [Imatinib], the “miRNAs upregulated at the MEC overall (hiPSC-CM pellet)” value in series [1] is “miR-96-5p, miR-126-3p, miR-133b, miR-185-3p”.

Take `CS(=O)(=O)CCNCc1ccc(-c2ccc3ncnc(Nc4ccc(OCc5cccc(F)c5)c(Cl)c4)c3c2)o1` [Lapatinib]: in series [1] (0.1 µM), the “hsa-miR-7-5p fold change, intracellular” value stood at 0.3; the “hsa-miR-29a-5p fold change” value stood at 0.1; the “hsa-miR-126-3p fold change, intracellular” value was 2.1; the “hsa-miR-146b-5p fold change” value worked out at 3.2. Besides, in series [1] (0.1 µM), the “hsa-miR-182-5p fold change” value is recorded as 3.2; the “hsa-miR-185-3p fold change” value is recorded as 0.9; the “hsa-miR-187-3p fold change” value amounted to 4.5; the “hsa-miR-208b-3p fold change, intracellular” value is reported as 1.0. Also, in series [1] (0.1 µM), the “hsa-miR-365a-5p fold change” value amounted to 0.5 and the “hsa-miR-[…] change, intracellular” value is 0.6. In addition, in series [1] (0.3 µM), the “hsa-miR-7-5p fold change, intracellular” value came out at 0.5; the “hsa-miR-126-3p fold change, intracellular” value amounted to 50.7; the “hsa-miR-146b-5p fold change” value was found to be 12.9; the “hsa-miR-182-5p fold change” value stood at 1.0. In series [1] (0.3 µM), the “hsa-miR-185-3p fold change” value amounted to 0.6; the “hsa-miR-187-3p fold change” value is given as 2.7; the “hsa-miR-208b-3p fold change, intracellular” value was determined as 1.6; the “hsa-miR-[…] change, intracellular” value worked out at 1.1. Besides, in series [1] (1 µM), the “hsa-miR-7-5p fold change, intracellular” value worked out at 0.3; the “hsa-miR-126-3p fold change, intracellular” value is recorded as 4.2; the “hsa-miR-146b-5p fold change” value is reported as 1.2; the “hsa-miR-182-5p fold change” value is on record as 0.9. In series [1] (1 µM), the “hsa-miR-185-3p fold change” value is reported as 0.9; the “hsa-miR-187-3p fold change” value is on record as 2.0; the “hsa-miR-208b-3p fold change, intracellular” value is on record as 1.2; the “hsa-miR-365a-5p fold change” value is listed as 1.9. Also, the “hsa-miR-[…] change, intracellular” value in series [1] (1 µM) was determined as 0.6. In addition, in series [1] (3 µM), the “hsa-miR-7-5p fold change, intracellular” value was found to be 0.7; the “hsa-miR-126-3p fold change, intracellular” value turned out to be 3.4; the “hsa-miR-146b-5p fold change” value worked out at 4.0; the “hsa-miR-182-5p fold change” value worked out at 0.4. Besides, in series [1] (3 µM), the “hsa-miR-185-3p fold change” value worked out at 4.3; the “hsa-miR-187-3p fold change” value is 3.9; the “hsa-miR-208b-3p fold change, intracellular” value turned out to be 1.6; the “hsa-miR-[…] change, intracellular” value is reported as 0.8. Moreover, in series [3], the “Cell index (CI) MEC” value is “ND (ND – not detected, magnitude of change was lower than 20%)”.

Turning to `CCN(CC)CCNC(=O)c1c(C)[nH]c(/C=C2\C(=O)Nc3ccc(F)cc32)c1C` [Sunitinib], the “intracellular miRNA upregulation in hiPSC-CM, in words” value in series [1] (72-hour treatment, four concentrations per drug) is on record as “smallest fold change”. In addition, the “miRNAs upregulated at the MEC overall (hiPSC-CM pellet)” value in series [1] (fold change ≥2, 72 h) is reported as “miR-146b-5p”.

Values taken from publication PMC12332266 (Frontiers in Pharmacology, 2025).
